# From EP2078717A1, “6-Pyrimidinyl-pyrimid-2-one derivative” (sanofi-aventis, priority 2008, dated 2009)
# Test: Inhibitory activity on CYP2D6 (human recombinant CYPs, luciferin substrate)
structure (smiles),measurement,value
"Cn1c(N2CCOC(c3ccc(-c4ccoc4)cc3)C2)nc(-c2ccncn2)cc1=O (stereo not shown) [compound 3, 2-[2-(4-Furan-3-yl-phenyl)-morpholin-4-yl]-1-methyl-1H-[4,4']bipyrimidinyl-6-one]",IC50,2300 nM
